Measured values: patent US20190055231A1, “BACE1 INHIBITORS” (Hoffmann-La Roche Inc., priority 2016, published 2019)

Chains of the proteins cited; added tags and fusions are not shown. Residues count along the entry.
UniProt P56817, 46-501: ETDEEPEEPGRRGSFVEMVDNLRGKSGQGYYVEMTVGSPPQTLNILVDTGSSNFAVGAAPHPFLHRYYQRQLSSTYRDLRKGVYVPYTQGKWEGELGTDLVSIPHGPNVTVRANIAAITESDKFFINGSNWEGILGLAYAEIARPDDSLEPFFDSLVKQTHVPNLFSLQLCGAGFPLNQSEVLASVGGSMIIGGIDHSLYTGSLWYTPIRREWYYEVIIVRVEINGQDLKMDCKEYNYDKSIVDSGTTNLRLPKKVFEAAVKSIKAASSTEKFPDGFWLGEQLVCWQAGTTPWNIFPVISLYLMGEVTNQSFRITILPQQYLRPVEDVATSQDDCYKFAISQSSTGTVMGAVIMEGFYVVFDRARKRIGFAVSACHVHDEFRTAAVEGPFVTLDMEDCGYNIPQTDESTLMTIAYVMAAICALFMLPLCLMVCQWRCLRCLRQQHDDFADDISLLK
UniProt P08183, whole entry: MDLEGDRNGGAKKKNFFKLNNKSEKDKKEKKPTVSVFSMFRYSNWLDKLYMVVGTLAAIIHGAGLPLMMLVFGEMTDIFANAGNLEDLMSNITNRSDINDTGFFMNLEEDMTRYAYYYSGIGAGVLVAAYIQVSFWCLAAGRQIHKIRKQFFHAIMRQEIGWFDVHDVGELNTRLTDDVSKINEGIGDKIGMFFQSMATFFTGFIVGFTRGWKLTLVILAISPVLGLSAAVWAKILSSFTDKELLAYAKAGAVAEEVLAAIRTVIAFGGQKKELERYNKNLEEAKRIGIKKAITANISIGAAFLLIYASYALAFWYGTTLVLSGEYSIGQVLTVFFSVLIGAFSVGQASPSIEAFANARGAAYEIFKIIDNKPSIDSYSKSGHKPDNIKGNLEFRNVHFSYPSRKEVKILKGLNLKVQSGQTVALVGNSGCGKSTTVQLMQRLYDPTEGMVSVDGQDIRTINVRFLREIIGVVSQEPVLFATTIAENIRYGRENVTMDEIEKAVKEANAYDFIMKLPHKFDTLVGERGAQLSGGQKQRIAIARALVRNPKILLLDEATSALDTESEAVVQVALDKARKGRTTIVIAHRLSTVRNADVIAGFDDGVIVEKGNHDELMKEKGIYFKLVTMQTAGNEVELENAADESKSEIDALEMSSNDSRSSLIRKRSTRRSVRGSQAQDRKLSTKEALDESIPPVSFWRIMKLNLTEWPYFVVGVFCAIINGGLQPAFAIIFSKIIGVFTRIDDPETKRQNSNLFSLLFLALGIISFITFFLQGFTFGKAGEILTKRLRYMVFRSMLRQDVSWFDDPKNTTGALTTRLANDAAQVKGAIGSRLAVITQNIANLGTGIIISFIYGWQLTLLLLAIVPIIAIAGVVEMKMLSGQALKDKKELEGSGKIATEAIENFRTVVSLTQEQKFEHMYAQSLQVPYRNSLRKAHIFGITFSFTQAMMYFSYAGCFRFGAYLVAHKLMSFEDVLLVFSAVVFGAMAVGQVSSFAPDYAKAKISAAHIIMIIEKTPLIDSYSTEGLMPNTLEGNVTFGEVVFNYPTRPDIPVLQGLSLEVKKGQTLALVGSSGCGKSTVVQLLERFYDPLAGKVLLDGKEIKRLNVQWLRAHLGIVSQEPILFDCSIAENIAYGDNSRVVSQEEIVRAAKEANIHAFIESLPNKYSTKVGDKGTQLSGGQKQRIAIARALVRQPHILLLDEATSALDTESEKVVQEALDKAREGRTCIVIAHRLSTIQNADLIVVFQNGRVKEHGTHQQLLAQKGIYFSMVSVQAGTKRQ

Tests used:
[1] = biological target: T1, BACE2 (Homo sapiens, UniProt Q9Y5Z0); test: BACE2 cell-free assay (BACE2 enzyme assay); format: biochemical; details: BACE2 IC50 divided by BACE1 IC50, cell free assays
T1 sequence (Q9Y5Z0 63-518): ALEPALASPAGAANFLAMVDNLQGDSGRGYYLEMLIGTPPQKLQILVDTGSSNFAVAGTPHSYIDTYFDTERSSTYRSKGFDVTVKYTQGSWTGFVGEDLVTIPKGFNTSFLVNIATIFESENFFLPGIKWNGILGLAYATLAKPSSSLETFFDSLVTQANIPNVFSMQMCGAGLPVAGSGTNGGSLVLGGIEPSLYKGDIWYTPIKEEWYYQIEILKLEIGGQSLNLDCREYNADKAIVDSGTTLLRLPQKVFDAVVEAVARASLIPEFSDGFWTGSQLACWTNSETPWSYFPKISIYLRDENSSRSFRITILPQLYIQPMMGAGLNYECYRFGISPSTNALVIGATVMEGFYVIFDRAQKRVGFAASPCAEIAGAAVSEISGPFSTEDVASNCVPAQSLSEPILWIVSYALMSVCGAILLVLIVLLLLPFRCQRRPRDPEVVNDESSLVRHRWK
Description: BACE2 Cell-Free Assay (BACE2 Enzyme Assay)
Selectivity versus related targets is important in terms of safety of a drug candidate. BACE2 is a close homolog of BACE1. BACE2 was recently reported to play a crucial role in pigmentation of the skin by processing pigment cell-specific melanocyte protein (PMEL). (Proc Natl Acad Sci USA. 2013 Jun. 25; 110(26):10658-63. doi: 10.1073/pnas.1220748110. Epub 2013 Jun. 10). It is believed that PMEL contributes in melanogenesis. Therefore, selectivity versus BACE2 is advantageous when it comes to pigmentation of the skin. The selectivity ratio of BACE2/BACE1 IC50 was calculated by dividing the BACE2 IC50 value by the BACE1 IC50 value determined each in the cell free assay. […] This implies a 3-fold improvement of example 1 compared to comparators 4 and 5.

[2] = biological target: T2, BACE1 (Homo sapiens, UniProt P56817); test: BACE1 cell-free assay (BACE1 enzyme assay); format: biochemical
Description: BACE1 Cell-Free Assay (BACE1 Enzyme Assay)
The determination of BACE1 activity can be either measured by using an enzymatic cell-free fluorescence assay (BACE1 cell free, table 2) or by a whole cell assay using HEK293 APP cells (Cellular Aβ-lowering, table 2). Both assays are suitable to determine BACE1 inhibition.

[3] = biological target: P-gp (Homo sapiens, UniProt P08183); test: P-gp transport assay (human); format: in vitro ADME; details: not told, read-out: higher P-gp efflux ratio than example 1
Description: P-Gp Transport Assay (Human and Mouse) (P-Gp Assay)
In the assay of the P-gp efflux ratio ER as described hereinabove, a compound with ER<2.5 is regarded most suitable. In addition, compounds with low hERG channel binding are suitable as well.

[4] = biological target: T2, BACE1; test: Cellular Aβ-lowering assay (Abeta 40 AlphaLISA, HEK293 APP cells); format: cell-based; design: endogenous in cells; host or cells: HEK293 APP cells; details: Aβ40 in supernatant, read-out: BACE1 cell act. Aβ40 IC50
Description: Cellular Aβ-Lowering Assay:
The Abeta 40 AlphaLISA Assay can be used. The HEK293 APP cells were seeded in 96 well Microtiter plates in cell culture medium (Iscove's, plus 10% (v/v) fetal bovine serum, penicillin/streptomycin) to about 80% confluency and the compounds were added at a 3× concentration in ⅓ volume of culture medium (final DMSO concentration was kept at 1% v/v). After 18-20 hrs incubation at 37° C. and 5% CO2 in a humidified incubator, the culture supernatants were harvested for the determination of AP 40 concentrations using Perkin-Elmer Human Amyloid beta 1-40 (high specificity) Kit (Cat#AL275C).
In a Perkin-Elmer White Optiplate-384 (Cat#6007290), 2 ul culture supernatants were combined with 2 μl of a 10× AlphaLISA Anti-hAP Acceptor beads+Biotinylated Antibody Anti-Aβ 1-40 Mix (50 μg/mL/5 nM). […] Light Emission at 615 nm was then recorded using EnVision-Alpha Reader. Levels of AP 40 in the culture supernatants were calculated as percentage of maximum signal (cells treated with 1% DMSO without inhibitor). The IC50 value were calculated using the Excel XLfit software. […]
The determination of BACE1 activity can be either measured by using an enzymatic cell-free fluorescence assay (BACE1 cell free, table 2) or by a whole cell assay using HEK293 APP cells (Cellular Aβ-lowering, table 2). […]

Cc1cc(C#N)cnc1C(=O)Nc1ccc(F)c([C@]2(C)C[C@@H](C(F)(F)F)OC(N)=N2)n1 [Comparator 5]
BACE2/BACE1 IC50 ratio [1]: 0.6 | IC50 [2]: 0.039 µM | efflux ratio [3]: 2 | IC50 [4]: 0.004 µM
